The results in this text go back to PMC10674987, “Sweet Cherry Extract as Permeation Enhancer of Tyrosine Kinase Inhibitors: A Promising Prospective for Future Oral Anticancer Therapies” (Pharmaceuticals, 2023).

The test system of the data set is Caco-2 monolayer. The data set can be described thus: Caco-2 monolayer permeability to albumin. In kind it is in vitro ADME, human. Particulars: 1 mg/mL HSA in HBSS, 2 h, A-B. On the procedure:
Caco-2 cells were seeded at a density of 2 × 10^4 on Transwell supports (0.4 µm pore polycarbonate membrane, 6.5 mm) and incubated overnight in a controlled atmosphere of 37 °C and 5% of CO2. The following day, the medium was changed to remove floating cells and fresh pre-warmed DMEM 20% was added (300 µL in the apical compartment and 1200 µL in the basal one). Cells were cultured for approximately 18–21 days in order to ensure that the cellular monolayers differentiated and many transport proteins and brush border hydrolases were expressed. Media were changed every 2–3 days.
Due to its large molecular size, human serum albumin (HSA) was used as a probe to conduct experiments focusing on the dimensions of drug cargoes. […] Finally, the amount of HSA that passed across the Caco-2 monolayer was quantified using the QuantiPro™ BCA Assay Kit (Sigma Aldrich S.r.l., Milan, Italy) with few modifications of the manufacturer’s protocol. Because of the possible complexing phaenomena between the cherry extract and HSA, primarily via hydrogen bonds and van der Waals forces, the quantification of HSA in the absence and presence of SCE was performed using specific calibration curves. […] Absorbance was quantified at 562 nm using a Multiskan SkyHigh Microplate Spectrophotometer (ThermoFisher, Waltham, MA, USA) after incubation for 2 h at 37 °C.
In general terms: Passage across Caco-2 layers is used to estimate intestinal permeability.

For the substance “HSA: human serum albumin (66.4 kDa), macromolecular tracer”, the “HSA detected in the basolateral compartment” value reads like this: (+SCE [1 mg/mL]) 104.887 ± 2.440 µg/mL; (Free) 108.760 ± 0.978 µg/mL.
